Measurements as given in patent US8809619B2, “Knockout mice for a P450 gene cluster” (ITI Scotland Limited, priority 2007, dated 2014).

[1] = Cyp3a cluster KO, RIF 60 mg/kg 3 daily doses, +/- % SD
[2] = Cyp3a cluster KO, RIF 60 mg/kg IP 3 daily doses, mean +/- SD, n=4

CO[C@H]1/C=C/O[C@@]2(C)Oc3c(C)c(O)c4c(O)c(c(/C=N/N5CCN(C)CC5)c(O)c4c3C2=O)NC(=O)/C(C)=C\C=C\[C@H](C)[C@H](O)[C@@H](C)[C@@H](O)[C@@H](C)[C@H](OC(C)=O)[C@@H]1C [rifampicin]
Body weight, % mean of corresponding strain control [1]: (102 +/− 11) % | Liver weight, % mean of corresponding strain control [1]: (100 +/− 10) % | Body weight [2]: 27 ± 3 g | Liver weight [2]: 1.26 ± 0.13 g | Hepatomegaly (either mouse strain (C57BL/6J, Cyp3a cluster KO), 60 mg/kg 3 daily doses): did not result in any hepatomegaly
